Assay results taken from ChEMBL document CHEMBL1138625, “Synthesis and evaluation of novel phenoxypropanolamine derivatives containing acetanilides as potent and selective beta3-adrenergic receptor agonists” (Bioorg Med Chem, 2009).

Columns and labels:
[1] = target: Beta-3 adrenergic receptor (Homo sapiens) (UniProt P13945)
[2] = target: Beta-1 adrenergic receptor (Homo sapiens) (UniProt P08588); assay: Agonist activity at human adrenergic receptor expressed in CHO cells assessed as cAMP accumulation

Row | SMILES | EC50 [1] [nM] | EC50 [2] [nM]
1 | O=C(Cc1ccccn1)Nc1ccc(CCNC[C@H](O)COc2cccnc2)cc1 | 180 | > 100000
2 | O=C(Cc1ccccn1)Nc1ccc(CCNC[C@H](O)COc2cccc3[nH]c(=O)[nH]c23)cc1 | 280 | > 100000
3 | O=C(Cc1cccc(Cl)n1)Nc1ccc(CCNC[C@H](O)COc2ccccc2)cc1 | 43 | 55
4 | O=C(Cc1ccccn1)Nc1ccc(CCNC[C@H](O)COc2cccc3[nH]c4ccccc4c23)cc1 | 250 | > 100000
5 | O=C(Cc1nccn1Cc1ccccc1)N1CCCc2cc(CCNC[C@H](O)COc3ccccc3)ccc21 | 170 | 120
6 | O=C(Cc1nc2ccccc2n1Cc1ccccc1)Nc1ccc(CCNC[C@H](O)COc2ccccc2)cc1 | 140 | > 100000
7 | O=C(Cc1nccn1-c1ccccc1)Nc1ccc(CCNC[C@H](O)COc2ccccc2)cc1 | 650 | > 100000
8 | O=C(Cc1nccn1Cc1ccc2ccccc2c1)Nc1ccc(CCNC[C@H](O)COc2ccccc2)cc1 | 260 | 69
9 | O=C(Cc1cn(Cc2ccccc2)cn1)Nc1ccc(CCNC[C@H](O)COc2ccccc2)cc1 | 130 | 280
